From article PMC6920469 (Scientific Reports, 2019)

Tested on: CLB-BAR cells
Test: Inhibition of ALK activity and downstream signaling (immunoblot), CLB-BAR
Type: cell-based, human
Conditions: 200 or 300 nM, 1 h

## C[C@@H](Oc1cc(-c2cnn(C3CCNCC3)c2)cnc1N)c1c(Cl)ccc(F)c1Cl [crizotinib, reference compound]
  Phosphorylation of ALK and downstream signaling targets (immunoblot): inhibit phosphorylation of downstream signaling targets of ALK
